# Results published in paper PMC7243081 (Slas Discovery, 2019).
# Protein sequences, listed by entry. Tags and fused reporters are not part of them. Residues count along the entry.
# UniProt P18508, 39-466: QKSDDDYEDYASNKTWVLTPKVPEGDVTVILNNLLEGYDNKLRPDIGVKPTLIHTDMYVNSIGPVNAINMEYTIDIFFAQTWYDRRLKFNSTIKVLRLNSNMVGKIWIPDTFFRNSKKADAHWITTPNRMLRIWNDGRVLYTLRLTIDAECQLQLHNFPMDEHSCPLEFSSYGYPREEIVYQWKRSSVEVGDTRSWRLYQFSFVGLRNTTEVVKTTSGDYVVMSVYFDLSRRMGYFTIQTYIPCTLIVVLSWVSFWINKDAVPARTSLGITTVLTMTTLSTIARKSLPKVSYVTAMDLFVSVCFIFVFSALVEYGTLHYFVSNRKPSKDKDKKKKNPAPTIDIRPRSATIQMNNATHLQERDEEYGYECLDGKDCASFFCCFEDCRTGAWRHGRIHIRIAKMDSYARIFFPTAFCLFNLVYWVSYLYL
# UniProt P62813, 28-455: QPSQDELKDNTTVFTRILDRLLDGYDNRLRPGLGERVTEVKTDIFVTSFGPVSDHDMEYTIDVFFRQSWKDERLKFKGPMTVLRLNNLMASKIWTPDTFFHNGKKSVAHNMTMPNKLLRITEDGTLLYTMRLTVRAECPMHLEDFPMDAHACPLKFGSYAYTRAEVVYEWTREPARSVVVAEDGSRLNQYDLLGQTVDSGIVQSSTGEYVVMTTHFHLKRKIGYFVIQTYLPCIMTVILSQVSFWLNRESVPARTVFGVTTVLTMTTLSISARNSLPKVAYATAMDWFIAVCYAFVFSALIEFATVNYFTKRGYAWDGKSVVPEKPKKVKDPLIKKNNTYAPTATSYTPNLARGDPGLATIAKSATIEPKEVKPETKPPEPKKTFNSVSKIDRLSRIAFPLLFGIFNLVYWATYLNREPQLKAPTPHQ
# UniProt P63138, 25-474 limits assumed: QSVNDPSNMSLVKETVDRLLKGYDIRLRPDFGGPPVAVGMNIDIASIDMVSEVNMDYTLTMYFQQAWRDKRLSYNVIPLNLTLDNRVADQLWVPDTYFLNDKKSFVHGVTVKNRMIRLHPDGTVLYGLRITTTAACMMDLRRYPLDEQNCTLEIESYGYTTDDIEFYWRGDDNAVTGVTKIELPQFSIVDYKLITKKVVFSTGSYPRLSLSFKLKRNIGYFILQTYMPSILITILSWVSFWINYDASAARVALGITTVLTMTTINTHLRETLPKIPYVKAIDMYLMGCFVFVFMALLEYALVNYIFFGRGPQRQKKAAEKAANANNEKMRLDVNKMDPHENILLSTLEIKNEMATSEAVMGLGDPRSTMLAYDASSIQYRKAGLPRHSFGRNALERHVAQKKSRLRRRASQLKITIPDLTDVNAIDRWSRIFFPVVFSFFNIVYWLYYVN
# Legend:
# [1] = target: GABAA receptor (α1, β2, and γ2s subunits, HEK-GABA) (Rattus norvegicus, UniProt P18508+P62813+P63138); assay type: cell-based
# [2] = target: α1, β2, and γ2s subunits of the rat GABAA receptors (HEK-GABA cells) (Rattus norvegicus, UniProt P18508+P62813+P63138); assay: QP-DHM modulator mode; assay type: cell-based; settings: maximum concentration of compound, with GABA at EC30, Fig. 3D
smiles,measurement,setting,value
COc1cc2c(c(OC)c1OC)-c1ccc(OC)c(=O)cc1[C@@H](NC(C)=O)CC2 [Colchicine],outcome of hits validation (activity and specificity for the GABAA receptor),[1],marginal effect
same,effect of GABA increased to % of the maximum (GABA at 10 µM),[2],21%
